Results as given in patent US7318917B2, “Rapid assays for neurotransmitter transporters” (Vanderbilt University, priority 2002, dated 2008).

Sequences of proteins named here, by UniProt entry; tags and fusion partners are left off.
UniProt Q01959, whole entry: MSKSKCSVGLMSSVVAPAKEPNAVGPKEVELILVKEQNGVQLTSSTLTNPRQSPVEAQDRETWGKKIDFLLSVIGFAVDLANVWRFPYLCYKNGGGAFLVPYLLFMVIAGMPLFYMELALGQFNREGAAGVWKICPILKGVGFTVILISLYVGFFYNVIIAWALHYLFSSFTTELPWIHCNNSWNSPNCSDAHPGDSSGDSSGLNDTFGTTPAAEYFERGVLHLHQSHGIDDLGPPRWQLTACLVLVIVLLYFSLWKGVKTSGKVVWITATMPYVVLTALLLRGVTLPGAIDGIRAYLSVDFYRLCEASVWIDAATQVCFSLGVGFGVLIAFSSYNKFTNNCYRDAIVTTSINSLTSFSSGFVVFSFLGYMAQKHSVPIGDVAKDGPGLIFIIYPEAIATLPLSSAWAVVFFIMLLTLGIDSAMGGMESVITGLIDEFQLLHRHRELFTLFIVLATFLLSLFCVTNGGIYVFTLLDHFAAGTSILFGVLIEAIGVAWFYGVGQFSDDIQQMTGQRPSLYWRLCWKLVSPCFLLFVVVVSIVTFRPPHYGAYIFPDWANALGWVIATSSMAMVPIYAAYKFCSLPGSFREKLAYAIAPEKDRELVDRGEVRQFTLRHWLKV

Molecular target: DAT (Homo sapiens, UniProt Q01959)
Assay: ASP+ uptake assay on FLEXstation, DAT-transfected HEK-293 cells
Format: cell-based
Design: expressed in transfected cells
Conditions: FIG. 11B
Protocol: HEK-293 cells (American Type Culture Collection, Manassas, Va.) and HEK-293 cells stably transfected with SERT, NET, or DAT (Qian et al, 1997) were maintained in monolayer culture at 37° C., 5% CO2 in Dulbecco's modified Eagle's medium (DMEM) containing 10% fetal bovine serum, 2 mM glutamine, 100 units/ml penicillin, and 100 μg/ml streptomycin. Medium for the transfected lines was supplemented with G418 (250 μg/ml). Trypsin, glutamine, penicillin, streptomycin, G418, and phosphate-free DMEM were purchased from Life Technologies, Inc. or obtained from the Vanderbilt Media Core. For all transport assays, cells were plated on poly-D-lysine (0.1 mg/ml)-coated (0.1 mg/ml)-coated 96-well plates. […]
To limit the time delay between the addition of ASP^+ and the measurement of accumulation of ASP^+ during the kinetic assays, plates were divided in half and assayed one half at a time. […] After incubation, ASP^+ was added to the first 6 columns in 20 μL aliquots at indicated concentrations and accumulated fluorescence measured and recorded over time by the FLEXStation ultilizing SoftMax Pro Software. Then, ASP^+ was added to the last 6 columns and fluorescence accumulation measured and recorded. […]
Endpoint assays were conducted to evaluate the sensitivity of ASP^+ uptake to transporter antagonists. […] ASP^+ accumulation was measured after 10 minutes. […]

c1ccc(CCCN2CCN(CCOC(c3ccccc3)c3ccccc3)CC2)cc1 [GBR-12935]
effect of antagonist on ASP+ accumulation by DAT: blocked
